Compound activity from PubChem BioAssay.
Shown are actives, neighbours in structure and some others; about 2.9% of the full set was active somewhere.
PTAP TSG101 blk – qHTS Assay for Iinhibitors of HIV-1 Budding by Blocking the Interaction of PTAP/TSG101. Potency, µM (doses to about 115 µM), for inactives: at the highest dose activity change, negative = inhibition, most hits filed as inhibitors. Tumor susceptibility gene 101 protein (Homo sapiens), Q99816. 340,000 tested, under 10 active. Fluorescence polarization, FITC-PTAP peptide / Tsg101 binding; active means well fitted inhibition curve with a large enough effect in the main read-out, with a control signal flat, not every such curve was filed as active; inconclusive means small, poorly fitted or top-dose-only effect, or effect the other way, or a change in a side signal; inactive means no such curve, though single readings can be large or run the other way; further: potency means the concentration at half of the fitted maximal effect; % of control where 0% means no effect
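Fluorescence polarization binding of Tsg101 binding domain (10 uM final) to FITC-labeled PTAP peptide (50 nM final) in HEPES pH 7.5 buffer with NaCl, Tween 20, EDTA, TCEP. Compounds added before peptide; binding 20 min at RT.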
Rango release inh – qHTS Assay for Inhibitors of RanGTP induced Rango (Ran-regulated importin-beta cargo) - Importin beta complex dissociation. Snurportin-1 (Homo sapiens) + GTP-binding nuclear protein Ran (Homo sapiens) + Importin …. Biochemical FRET Rango-importin beta, RanGTP-induced dissociation. Potency, µM (doses to about 46.1 µM), for inactives: top-dose activity change, negative = inhibition. hit rate 0.071% among 340,000; further: potency means the concentration at half of the fitted maximal effect; % of control where 0% means no effect; nearly all actives have a fitted effect of over 45% in size
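Rango (0.1 uM)–importin beta (0.25 uM) complex; RanGTP-RCC1 trigger; 45 min RT; CFP/YFP FRET read.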
DRD3 antagonist – qHTS of D3 Dopamine Receptor Antagonist: qHTS; D3R cells, DiscoveRx beta-arrestin luminescence, antagonist mode; hits give low values; max response, negative = inhibition, %; D(3) dopamine receptor (Homo sapiens), P35462; hit rate 2.5% among 360,000; in the data active means max response below about -50%; inconclusive means no clear call, values can overlap the other calls; further: on the % scale 0 is the no-effect control and ±100 the full control effect
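Cells plated overnight at 1500 cells/well, then exposed to library compounds with dopamine controls for 90 minutes at 37 degrees C. DiscoveRx reagent added for 30–60 minutes at room temperature; luminescence read, quantitative HTS format.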
MmCpn inh – Inhibitors of TCP-1 ring complex (TRiC) of Methanococcus maripaludis (MmCpn): qHTS. purified Mm-Cpn ATPase, ADP Transcreener TR-FRET. Potency, µM (doses to about 76.9 µM), for inactives: at the highest dose activity, negative = inhibition, most hits filed as inhibitors. hit rate 0.031% among 330,000. AID 504842, 2011; active means well fitted inhibition curve with a large enough effect; inconclusive means small, poorly fitted or top-dose-only effect; further: potency means the concentration at half of the fitted maximal effect; on the % scale 0 is the no-effect control and ±100 the full control effect; nearly all actives have a fitted effect of over 80% in size
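Eu-cryptate anti-ADP/ADP-d2 competition gives a ratio inversely related to ADP. Enzyme at 25 nM was pre-exposed to compound for 10 min, then given 10 uM ATP for 30 min, 37°C throughout.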
Rango-impB inh – qHTS Assay for Inhibitors of Rango (Ran-regulated importin-beta cargo) - Importin beta complex formation; hit rate 0.031% among 340,000; Importin subunit beta-1 (Homo sapiens), Q14974; AID 540263, 2011; Potency, µM (titrated, usually from 92.2 µM), for the others: top-dose inhibition of complex formation; Rango CFP/YFP FRET sensor + importin beta, 45 min;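 further: potency means the concentration at half of the fitted maximal effect; 0% = DMSO wells and 100% = buffer wells lacking importin beta; nearly all actives have a fitted effect of over 15% in size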
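FRET biosensor (snurportin 1 IBB flanked by EYFP and cerulean), 50 nM, with compound 5 min, then 0.125 microM importin beta in PBS, 1 mM DTT, 0.02% Tween-20, 0.1% BSA. CFP/YFP ratio read after 45 min at room temperature; pre-read flags interference.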
D3 ag – qHTS of D3 Dopamine Receptor Agonist: qHTS. D(3) dopamine receptor (Homo sapiens), P35462. D3R DiscoveRx beta-arrestin cells, luminescence, 90 min. max activation, %. hit rate 0.58% among 410,000; in the data active means max activation above about 30%; further: 0% is about no effect
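Agonist-mode cell screen: cells plated at 1500/well and incubated overnight at 37 °C, then exposed to library compounds for 90 min at 37 °C. Detection reagent was added for 30–60 min at room temperature, and luminescence was read.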
* marks the source's active call; other numbers are inactive results; u = inconclusive; x = not tested or not shown. Unless noted, the call rests on the fitted dose curve.

Chains of the proteins cited; added tags and fusions are not shown.
D(3) dopamine receptor (Homo sapiens), P35462, UniProt P35462, whole entry, looked up: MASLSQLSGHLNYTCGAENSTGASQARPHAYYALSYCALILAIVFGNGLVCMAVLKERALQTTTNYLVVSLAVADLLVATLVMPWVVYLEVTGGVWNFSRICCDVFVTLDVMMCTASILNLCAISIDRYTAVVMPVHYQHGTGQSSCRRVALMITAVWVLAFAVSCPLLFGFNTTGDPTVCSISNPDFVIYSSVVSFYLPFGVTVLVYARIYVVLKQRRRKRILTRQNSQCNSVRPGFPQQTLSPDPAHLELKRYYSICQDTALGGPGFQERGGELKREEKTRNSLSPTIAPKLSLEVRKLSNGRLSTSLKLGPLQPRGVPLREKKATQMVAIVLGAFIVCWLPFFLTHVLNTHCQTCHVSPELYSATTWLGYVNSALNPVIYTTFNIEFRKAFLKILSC
Importin subunit beta-1 (Homo sapiens), Q14974, UniProt Q14974, whole entry, looked up: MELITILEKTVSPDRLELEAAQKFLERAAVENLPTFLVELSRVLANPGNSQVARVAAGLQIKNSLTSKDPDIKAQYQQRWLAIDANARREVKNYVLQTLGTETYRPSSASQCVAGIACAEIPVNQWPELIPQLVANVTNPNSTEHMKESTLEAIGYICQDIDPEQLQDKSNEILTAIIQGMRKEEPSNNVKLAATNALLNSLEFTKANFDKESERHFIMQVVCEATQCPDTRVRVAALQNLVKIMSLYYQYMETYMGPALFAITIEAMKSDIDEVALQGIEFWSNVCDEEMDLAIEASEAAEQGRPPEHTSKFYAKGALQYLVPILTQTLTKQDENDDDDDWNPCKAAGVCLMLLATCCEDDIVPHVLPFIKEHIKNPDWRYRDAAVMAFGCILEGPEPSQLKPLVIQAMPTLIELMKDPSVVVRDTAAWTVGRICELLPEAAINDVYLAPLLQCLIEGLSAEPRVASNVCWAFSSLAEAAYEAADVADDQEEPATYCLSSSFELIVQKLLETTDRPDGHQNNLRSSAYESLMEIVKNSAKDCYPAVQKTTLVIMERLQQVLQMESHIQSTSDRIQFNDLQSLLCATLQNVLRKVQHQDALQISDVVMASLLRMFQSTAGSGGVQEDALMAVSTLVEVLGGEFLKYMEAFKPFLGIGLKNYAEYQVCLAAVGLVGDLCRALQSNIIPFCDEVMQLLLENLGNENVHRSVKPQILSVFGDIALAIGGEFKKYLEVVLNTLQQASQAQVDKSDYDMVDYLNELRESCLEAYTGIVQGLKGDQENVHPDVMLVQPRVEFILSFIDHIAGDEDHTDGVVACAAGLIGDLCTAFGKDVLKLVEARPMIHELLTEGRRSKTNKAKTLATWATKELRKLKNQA

| Structure | MmCpn inh | Rango release inh | D3 ag | DRD3 antagonist | Rango-impB inh | PTAP TSG101 blk |
| --- | --- | --- | --- | --- | --- | --- |
| COc1ccc(N2CSC(=S)N(c3ccc(OC)cc3)C2)cc1 | x | x | -8 | -1 | x | x |
| CCc1nn2c(=O)cc(COC(=O)c3ccccc3NC(=O)COc3ccc(C)c(C)c3)nc2s1 | x | x | 3 | x | x | x |
| Cc1ccc(C)c(CN2C(=O)c3ccccc3S(=O)c3ccc(C(=O)NCCC4=CCCCC4)cc32)c1 (stereo unspecified) | x | x | -11 | x | x | x |
| Cc1cc(C(F)F)n2nc(C(=O)Nc3ccccc3F)nc2n1 | -2% | -6% | 2 | 2 | 0% | 2% |
| Cc1cc(C(F)F)n2nc(C(=O)Nc3ccc(F)cc3F)nc2n1 | -1% | 1% | 4 | -54* | -1% | 1% |
| CCOC(=O)c1ccc(NC(=O)CCCn2nc(C)c3sc4ccccc4c3c2=O)cc1 | x | x | 2 | x | x | x |
| CCc1c(C)sc(NC(=O)c2cccs2)c1C(=O)OC(C)C | 1% | -10% | 3 | -54* | -3% | -2% |
| S=c1[nH]nc(-c2ccco2)n1/N=C/C=C/c1ccccc1 | -1% | 9% | -13 | -64* | 1% | -5% |

(list continues)
| Structure | MmCpn inh | Rango release inh | D3 ag | DRD3 antagonist | Rango-impB inh | PTAP TSG101 blk |
| --- | --- | --- | --- | --- | --- | --- |
| S=c1[nH]nc(-c2ccccc2)n1/N=C/C=C/c1ccco1 | 2% | -5% | -14 | -24 | 9% | -5% |
| COc1ccccc1/C=C/C=N/n1c(-c2ccc(Cl)cc2)n[nH]c1=S | 0% | 28% | -18 | -63* | 1% | -1% |
| Cc1n[nH]c(=S)n1/N=C/c1ccc(OCc2ccc(Cl)cc2Cl)cc1 | -2% | -6% | -7 | -4 | -1% | -3% |
| Cc1n[nH]c(=S)n1/N=C/c1ccccc1OCc1ccc(Cl)cc1Cl | -2% | 15% | 31* | 21 | 0% | 0% |
| CC(=C/c1ccccc1)/C=N/n1c(-c2ccco2)n[nH]c1=S | 1% | -6% | -4 | -23 | 0% | -2% |
| S=c1[nH]nc(-c2ccc(Cl)cc2)n1/N=C/C=C/c1ccco1 | 2% | 14% | -3 | -80* | -1% | 2% |
| CSc1ccc(-c2cc3c(c4c2ccn4C)C2CCC3O2)cc1 (stereo unspecified) | x | x | -11 | -16 | x | x |
| COc1ccc(Nc2c3c(nc4ccc(NC(=O)c5cc(Cl)ccc5OC)cc24)CCCC3)cc1OC | x | x | -16 | x | x | x |

Next compounds:
| Structure | MmCpn inh | Rango release inh | D3 ag | DRD3 antagonist | Rango-impB inh | PTAP TSG101 blk |
| --- | --- | --- | --- | --- | --- | --- |
| S=c1[nH]nc(Cc2cccc3ccccc23)n1-c1ccccc1 | 1% | -15% | -1 | -51* | u | -1% |
| S=c1[nH]nc(-c2ccco2)n1-c1cccc2ccccc12 | -5% | 19% | 1 | -74* | -3% | -2% |
| COc1ccccc1-n1c(-c2ccco2)n[nH]c1=S | -7% | 0% | 1 | 20 | -1% | 1% |
| S=c1[nH]nc(-c2ccco2)n1/N=C/c1ccc(Cl)cc1Cl | 1% | 6% | 1 | -54* | 5% | -8% |
| COc1cccc(CNC(=O)c2ccc3nc(CCc4ccccc4)oc3c2)c1OC | x | x | 1 | x | x | x |
| Cc1ccc(Cn2c(=O)n(-c3cccc(C(F)(F)F)c3)c(=O)c3c(C)c(C)sc32)c(C)c1 | x | x | -5 | x | x | x |
| CCCOC(=O)c1ccc(N)cc1 | x | x | -2 | x | x | x |
| CCc1ccc(NC(=O)Nc2ccsc2C(=O)OC)cc1 | -1% | -1% | 5 | 0 | -3% | -3% |

(continued)
| Structure | MmCpn inh | Rango release inh | D3 ag | DRD3 antagonist | Rango-impB inh | PTAP TSG101 blk |
| --- | --- | --- | --- | --- | --- | --- |
| CCn1c(CC(=O)Nc2ccc(Cl)c(Cl)c2)nnc1SCc1ccc(C)cc1 | 4% | -12% | 7 | -93* | 2% | -3% |
| CCn1c(CC(=O)Nc2ccc(Cl)c(Cl)c2)nnc1SCc1ccc(Cl)cc1 | 0% | 0% | -13 | 26 | 0% | -4% |
| COc1ccc2c(c1)c1c(c(=O)n(-c3ccc(F)c(Cl)c3)c(=O)n1CC(=O)N1CCCC1)n2C | x | x | 0 | x | x | x |
| O=C(COc1ccc2ccccc2c1CN1CCOCC1)N1CCc2ccccc21 | 0% | -1% | -9 | -69* | 0% | -2% |
| O=C(COc1ccccc1Cl)N1CCc2ccccc21 | 0% | -8% | -10 | 8 | -4% | -8% |
| Cc1cc2c(c(=O)n1Cc1cccnc1)C(c1cccs1)C(C#N)=C(N)O2 (stereo unspecified) | -4% | -4% | -7 | -51* | -2% | -3% |
| CCCCNc1ccc(C(=O)OCCN(CC)CC)cc1 | x | x | -8 | x | x | x |
| CSc1nc(N)nc2c1ncn2CC(=O)NCc1ccc2[nH]ccc2c1 | -1% | 14% | 48* | 13 | 3% | -11% |

Reprinted at random: five records from the list, in no set order.
| Structure | MmCpn inh | Rango release inh | D3 ag | DRD3 antagonist | Rango-impB inh | PTAP TSG101 blk |
| --- | --- | --- | --- | --- | --- | --- |
| CCn1c(CC(=O)Nc2ccc(Cl)c(Cl)c2)nnc1SCc1ccc(C)cc1 | 4% | -12% | 7 | -93* | 2% | -3% |
| O=C(COc1ccccc1Cl)N1CCc2ccccc21 | 0% | -8% | -10 | 8 | -4% | -8% |
| Cc1cc2c(c(=O)n1Cc1cccnc1)C(c1cccs1)C(C#N)=C(N)O2 (stereo unspecified) | -4% | -4% | -7 | -51* | -2% | -3% |
| COc1ccc2c(c1)c1c(c(=O)n(-c3ccc(F)c(Cl)c3)c(=O)n1CC(=O)N1CCCC1)n2C | x | x | 0 | x | x | x |
| O=C(COc1ccc2ccccc2c1CN1CCOCC1)N1CCc2ccccc21 | 0% | -1% | -9 | -69* | 0% | -2% |

Later entries.
| Structure | MmCpn inh | Rango release inh | D3 ag | DRD3 antagonist | Rango-impB inh | PTAP TSG101 blk |
| --- | --- | --- | --- | --- | --- | --- |
| CSc1nc(N)nc2c1ncn2CC(=O)NCc1ccccc1 | 0% | 21% | 8 | 32 | -2% | 2% |
| CCc1nc(-c2cc(S(=O)(=O)N3CCN(c4ccccc4)CC3)ccc2OC)no1 | x | x | 4 | x | x | x |
| N#Cc1c(C(F)(F)F)cc(-c2cccs2)nc1SCC(=O)Nc1ccc(Cl)cc1 | x | x | 6 | x | x | x |
| CC(C)Oc1ccc(C(=O)OC(C)C(=O)NC2CCCCC2C)cc1 (stereo unspecified) | 1% | -3% | 1 | -11 | 26µM* | -5% |
| CC(=O)c1ccc(OC(C)C(=O)NC2CCCCC2C)cc1 (stereo unspecified) | 0% | -13% | -12 | -20 | 0% | 2% |
| Cc1ccc(-c2ccc(/C=N/N=C3/NC(=O)C(CC(=O)O)S3)o2)c([N+](=O)[O-])c1 (stereo unspecified) | -2% | -12% | -3 | -79* | -3% | 2% |
| Cn1c(=O)c(C(=O)NNC(=O)c2cccc(Cl)c2)c(O)c2ccccc21 | 1% | -17% | 7 | 3 | 0% | 0% |
| Cc1cccc(C(=O)NNC(=O)c2c(O)c3ccccc3n(C)c2=O)c1 | 2% | -12% | 30* | 58 | -2% | 0% |

Further compounds.
| Structure | MmCpn inh | Rango release inh | D3 ag | DRD3 antagonist | Rango-impB inh | PTAP TSG101 blk |
| --- | --- | --- | --- | --- | --- | --- |
| COc1ccc(CCn2c(=O)c3cccnc3n(CC(=O)Nc3c(C)cc(C)cc3C)c2=O)cc1OC | x | x | -1 | x | x | x |
| C=CC(=O)N1C/C(=C/c2ccc(F)cc2)C(=O)/C(=C\c2ccc(F)cc2)C1 | x | -19% | -5 | -61* | -4% | 1% |
| S=C(c1cn(CCOc2cccc3ccccc23)c2ccccc12)N1CCCC1 | 50µM* | u | 0 | -15 | u | 10% |
| Cc1ccc(OCCn2cc(/C(N)=N/O)c3ccccc32)cc1C | 1% | 9% | -3 | 9 | u | -5% |
| S=C(c1cn(CCOc2ccccc2)c2ccccc12)N1CCCC1 | -22% | -24% | -1 | 4 | u | 1% |
